# Binding of CDR-mutated scFvs to a peptide of the spike HR2 region

Values reported by Engelhart et al. 2022, doi:10.1038/s41597-022-01779-4 (FLAb copy).

Target: peptide PDVDLGDISGINAS, taken from heptad repeat 2 (HR2) of SARS-CoV-2 spike.

Parent: Ab-95, a human scFv built as VH, three GGGGS repeats, VL. Only the CDRs of the light chain vary.
VH: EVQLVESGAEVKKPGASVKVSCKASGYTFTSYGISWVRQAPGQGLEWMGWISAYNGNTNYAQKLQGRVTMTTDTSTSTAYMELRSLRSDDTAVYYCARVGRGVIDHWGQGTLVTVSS
VL: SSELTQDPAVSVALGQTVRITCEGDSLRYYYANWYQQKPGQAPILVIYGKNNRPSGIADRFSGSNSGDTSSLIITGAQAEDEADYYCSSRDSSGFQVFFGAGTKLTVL

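The parent was found by panning a naive human phage display library on the peptide. Variants in AAYL52 differ from the parent at up to three CDR positions; double and triple changes were sampled at random. The scFvs were displayed on barcoded MATa yeast, the peptide on MATalpha yeast. Mating (16 h, 30 °C) was followed by selection of diploids and sequencing of their barcodes. Read counts were normalised to the haploid input and turned into Kd by a linear fit to BCL2-family pairs of known affinity, for each replicate. Each pool was mated in three replicate cultures.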

Positions count from residue 1 of the parent VL; P54F puts F in place of P. All variants listed here change P54 of the VL, counted from its first residue. Scale: log10 of Kd in nM, estimated from mating counts; low values are strong binders. An entry "nd" has no value in the source: the pair was not observed among the diploids in that replicate. This suggests poor binding but is not conclusive. Background: pairings of library AAYL52 with three empty control strains gave a value in 28% of cases (median 3.91, 5th percentile 2.90). Values in that range, when seen in few replicates, are hard to tell from nonspecific mating. For reference, the parent read 2.31 as the reference entry and 2.25 as a member of this library.

P54F S88E R90V: 5.48, 4.00, 3.74.
E23A K50G P54T: 2.05, 2.28, 2.16.
A32G P54I: nd, 4.66, nd.
N33L N51L P54S: 5.07, nd, 3.23.
E23A P54L S89I: 2.99, nd, nd.
E23F P54G F98C: 2.89, 2.84, 3.74.
N51L P54R D91G: 5.11, nd, nd.
G49K P54M: nd, nd, nd.
L27G G49S P54S: nd, 5.70, nd.
G49K P54L R90I: nd, nd, 3.06.
E23K P54S F95G: 2.63, 3.11, 2.81.
D25S Y31V P54I: 3.96, 3.47, nd.
S26T A32D P54A: 4.76, 4.67, 4.72.
A32I P54M F95Y: 2.90, 3.18, 3.08.
N52G P54E Q96F: 3.82, 5.17, nd.
E23Y P54H S93R: 4.10, 3.21, 3.59.
N51V N52I P54D: nd, nd, nd.
Y30L P54A S55W: 3.54, 3.01, 3.74.
S26D P54L V97I: 3.38, 3.42, 2.32.
P54V F95I V97N: 2.33, 2.08, 1.83.
P54H G94C F98S: nd, nd, nd.
E23I R53G P54C: 5.31, nd, nd.
K50D P54K S93L: 3.12, 2.96, nd.
P54I D91M F95R: 4.77, 4.59, 4.08.
G24R R53Y P54A: 3.23, 2.26, 3.55.
Y29V P54F S55R: 3.84, 5.07, 3.86.
A32Q P54Q: 3.86, nd, nd.
R28C P54G V97E: 3.60, 3.22, 2.96.
D25G G49Q P54L: 3.05, nd, 3.02.
A32C P54I F98P: 2.51, nd, nd.
D25Y P54V: 3.13, 2.79, nd.
A32C P54S S92C: nd, nd, 1.99.
Y30M P54E: 1.52, 1.63, 1.15.
S26D N52F P54Y: 3.39, 4.11, nd.
G49H P54G S88D: 3.69, 3.58, nd.
N33R P54M R90C: nd, nd, nd.
Y30V K50H P54D: 2.76, 3.07, 2.35.
P54M D91K S93Q: nd, 4.04, 2.44.
Y29L N33C P54G: nd, 3.78, 3.71.

Top 2 of the variants detected in all replicates, tightest first:

For Y30M P54E, the assay gave 1.52, 1.63, 1.15.
For P54V F95I V97N, the assay gave 2.33, 2.08, 1.83.